Source: PubChem BioAssay AID1823 (The Scripps Research Institute Molecular Screening Center, 2009)
Only a part is listed here, and it is no random draw. The source made the active and inactive calls. No stated cut-off is given here; in the data, active means inhibition above about 75%; inactive means the rest.

assay: counter-screen for Nox1 inhibitors: inhibitors of luminol chemiluminescence (AID 1823); conditions: HRP/luminol/H2O2 chemiluminescence counterscreen; at 6.7 µM; hits give high values

SMILES | inhibition
O=C(OC1CN2CCC1CC2)c1cccc([N+](=O)[O-])c1 (configuration not stated) | inactive: 3.82%
CCOC(=O)/C(=N/Nc1ccc([N+](=O)[O-])cc1)N1CC1 | inactive: 7.7%
